Columns and labels:
[1] = molecular target: T1, Adenylate cyclase type 10 (Homo sapiens, UniProt Q96PN6)
[2] = molecular target: T1, Adenylate cyclase type 10; remark: listed apart in the source

The chains behind the UniProt entries cited, without tags or fusion partners. Where a name states a change or a piece, a line headed by the entry shows the natural chain unless it says otherwise.
UniProt Q96PN6: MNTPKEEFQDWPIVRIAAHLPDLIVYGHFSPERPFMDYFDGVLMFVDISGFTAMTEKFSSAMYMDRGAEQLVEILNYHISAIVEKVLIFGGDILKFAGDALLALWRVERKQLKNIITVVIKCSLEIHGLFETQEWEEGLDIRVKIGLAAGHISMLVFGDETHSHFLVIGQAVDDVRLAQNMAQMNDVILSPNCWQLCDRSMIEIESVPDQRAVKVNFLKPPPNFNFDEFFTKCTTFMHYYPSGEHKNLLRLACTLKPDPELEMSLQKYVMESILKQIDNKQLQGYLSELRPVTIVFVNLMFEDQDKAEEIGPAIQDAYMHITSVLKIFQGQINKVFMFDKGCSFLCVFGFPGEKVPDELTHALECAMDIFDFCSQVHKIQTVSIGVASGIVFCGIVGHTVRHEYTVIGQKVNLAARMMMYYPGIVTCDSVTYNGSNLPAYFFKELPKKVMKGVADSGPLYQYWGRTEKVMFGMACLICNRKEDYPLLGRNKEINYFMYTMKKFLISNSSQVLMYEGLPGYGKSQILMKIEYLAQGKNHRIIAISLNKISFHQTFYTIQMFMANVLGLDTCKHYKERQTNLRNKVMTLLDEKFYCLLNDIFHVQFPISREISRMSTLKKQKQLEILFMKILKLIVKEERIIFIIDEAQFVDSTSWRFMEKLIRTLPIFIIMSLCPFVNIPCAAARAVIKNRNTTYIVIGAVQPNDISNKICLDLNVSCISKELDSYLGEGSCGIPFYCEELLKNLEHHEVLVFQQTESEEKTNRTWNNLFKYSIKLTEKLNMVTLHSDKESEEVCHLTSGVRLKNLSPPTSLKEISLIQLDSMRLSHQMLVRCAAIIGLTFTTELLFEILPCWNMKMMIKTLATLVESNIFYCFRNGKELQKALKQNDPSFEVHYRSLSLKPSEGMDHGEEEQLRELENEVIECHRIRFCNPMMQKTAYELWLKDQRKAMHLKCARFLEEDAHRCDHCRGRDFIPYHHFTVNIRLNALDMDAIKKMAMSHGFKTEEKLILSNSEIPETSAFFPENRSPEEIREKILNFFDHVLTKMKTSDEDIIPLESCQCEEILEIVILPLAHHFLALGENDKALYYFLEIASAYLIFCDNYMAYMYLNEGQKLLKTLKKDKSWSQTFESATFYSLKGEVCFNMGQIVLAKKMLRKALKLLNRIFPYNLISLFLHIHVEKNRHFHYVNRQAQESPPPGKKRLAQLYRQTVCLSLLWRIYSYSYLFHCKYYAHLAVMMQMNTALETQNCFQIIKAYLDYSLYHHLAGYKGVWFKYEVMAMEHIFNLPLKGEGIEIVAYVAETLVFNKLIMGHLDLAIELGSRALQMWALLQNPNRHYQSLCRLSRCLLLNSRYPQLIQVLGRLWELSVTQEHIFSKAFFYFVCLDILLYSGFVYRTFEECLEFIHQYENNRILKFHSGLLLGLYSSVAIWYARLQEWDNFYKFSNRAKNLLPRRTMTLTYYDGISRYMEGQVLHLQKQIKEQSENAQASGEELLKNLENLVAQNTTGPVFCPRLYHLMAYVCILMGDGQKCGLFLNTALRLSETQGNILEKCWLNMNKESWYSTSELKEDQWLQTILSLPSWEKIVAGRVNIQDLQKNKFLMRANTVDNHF

Row | Structure (SMILES) | IC50 [1] | Kd [2]
1 | Cn1cc(Cc2ccccc2OCCN2CC3CC(C2)O3)c(-c2cc(Cl)nc(N)n2)n1 | 6.7 nM | –
2 | Nc1nc(Cl)cc(-c2nn(C(F)(F)F)cc2Cc2ccccc2)n1 | 469 nM | –
3 | Cn1cc(Cc2ccccc2)c(-c2cc(Cl)nc(N)n2)n1 | 1020 nM | –
4 | Cn1cc(Cc2ccccc2Oc2ccccc2)c(-c2cc(Cl)nc(N)n2)n1 | 87.1 nM | –
5 | COC(=O)c1cccc(Cc2cn(C)nc2-c2cc(Cl)nc(N)n2)c1 | 436 nM | –
6 | Cn1cc(Cc2ccccc2OCCN2CCNC(=O)C2)c(-c2cc(Cl)nc(N)n2)n1 | 16.9 nM | –
7 | Cn1cc(Cc2ccccc2OCCN2CC3(COC3)C2)c(-c2cc(Cl)nc(N)n2)n1 | 7.8 nM | –
8 | COC(=O)c1ccccc1Cc1cn(C)nc1-c1cc(Cl)nc(N)n1 | 21 nM | –

Now from value to molecule:

Row | IC50 [1] | Kd [2] | Structure (SMILES)
9 | 3.9 nM | 3.3 nM | Nc1nc(Cl)cc(-c2nn(C(F)F)cc2Cc2ccccc2OCCN2CCOCC2)n1
10 | 12.3 nM | – | Cn1cc(Cc2ccccc2OCCN2CCOCC2)c(-c2cc(Cl)nc(N)n2)n1
11 | 2.1 nM | 5.5 nM | Nc1nc(Cl)cc(-c2nn(C(F)F)cc2Cc2ccccc2OCCN2CCNC(=O)C2)n1
12 | 4 nM | 3.6 nM | CC1(O)CCN(CCOc2ccccc2Cc2cn(C(F)F)nc2-c2cc(Cl)nc(N)n2)CC1

Reference: ChEMBL document CHEMBL5214996, “Design, Synthesis, and Pharmacological Evaluation of Second-Generation Soluble Adenylyl Cyclase (sAC, ADCY10) Inhibitors with Slow Dissociation Rates” (J Med Chem, 2022)
